Reference: patent publication US12559781B2, “Methods of producing polypeptides using a cell line resistant to apoptosis” (Genentech, Inc., priority 2018, dated 2026)

System: HEK293 DKO cells
Details: 1 μM staurosporine; shake flask seed train cultures seeded at 0.8×10^6 cells/mL; HEK293 DKO (Bax/Bak knock-out) compared with parental HEK293; FIG. 1A

CN[C@@H]1C[C@H]2O[C@@](C)([C@@H]1OC)n1c3ccccc3c3c4c(c5c6ccccc6n2c5c31)C(=O)NC4 [staurosporine]
viability upon staurosporine addition: HEK293 DKO cells maintained higher viability compared to HEK293 cells
